## AlphaSeq binding of Ab-95 light chain variants to a spike HR2 peptide

Source: Engelhart et al. 2022 (doi:10.1038/s41597-022-01779-4), MIT Lincoln Laboratory and A-Alpha Bio; data file from the FLAb repository.

Antigen: PDVDLGDISGINAS, a 14-residue peptide of the SARS-CoV-2 spike HR2 region.

The variants keep the heavy chain, the linker and the frameworks of Ab-95 (scFv order VH, a 15-residue (Gly4Ser)3 linker, VL).
VH: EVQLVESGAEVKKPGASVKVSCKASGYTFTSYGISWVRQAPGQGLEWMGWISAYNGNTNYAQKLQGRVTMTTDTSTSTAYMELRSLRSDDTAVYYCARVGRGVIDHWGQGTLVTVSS
VL: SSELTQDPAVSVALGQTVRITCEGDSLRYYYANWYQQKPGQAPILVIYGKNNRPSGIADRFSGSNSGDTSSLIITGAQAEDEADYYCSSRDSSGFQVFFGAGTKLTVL

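Phage display of a naive human antibody library on the peptide gave the parent. AAYL52 was designed without a model: most single CDR substitutions and a random sample of double and triple ones. The scFvs were displayed on barcoded MATa yeast, the peptide on MATalpha yeast. Mating (16 h, 30 °C) was followed by selection of diploids and sequencing of their barcodes. Each replicate has its own calibration line, from reference interactions of the BCL2 family. Mating was done three times.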

Positions count from residue 1 of the parent VL; F95S puts S in place of F.
Every variant below is changed at F98 of the VL (sequential numbering).
The Kd shown is the geometric mean over detected replicates; a lower Kd is a better binder.
A pair that was not seen in any replicate is written "nd"; this usually means weak binding, but a binder can also be missed.

With F95S V97S F98M the result was 6.6 µM (2 of 3 replicates; controls 4 of 9).
With S88D F98M the result was 70 nM (3 of 3 replicates; controls 5 of 9).
With Y30M S92I F98A the result was 19 nM (3 of 3 replicates; controls 2 of 9).
With S92H F98L the result was 3.6 µM (3 of 3 replicates; controls 2 of 9).
With E23R S92R F98S the result was nd (0 of 3 replicates; controls 0 of 9).
With K50L N52Q F98T the result was 2.6 µM (2 of 3 replicates; controls 5 of 9).
With N52R S92T F98I the result was 9.7 µM (1 of 3 replicates; controls 2 of 9).
With R28H N51P F98N the result was 780 µM (1 of 3 replicates; controls 1 of 9).
With P54W F95G F98R the result was 2.7 µM (3 of 3 replicates; controls 4 of 9).
With Y31N F95R F98E the result was 15 nM (3 of 3 replicates; controls 2 of 9).
With N33Q R90T F98I the result was nd (0 of 3 replicates; controls 0 of 9).
With K50N Q96S F98Q the result was 3.1 µM (3 of 3 replicates; controls 2 of 9).
With N33S R53D F98C the result was 20 µM (1 of 3 replicates; controls 3 of 9).
With S93I V97E F98K the result was 1.6 µM (1 of 3 replicates; controls 1 of 9).
With L27R N33V F98T the result was 42 µM (2 of 3 replicates; controls 3 of 9).
With R28W G49E F98S the result was 5.6 µM (3 of 3 replicates; controls 3 of 9).
With Y31S S93E F98L the result was 140 nM (3 of 3 replicates; controls 1 of 9).
With E23Q G24H F98A the result was 330 nM (3 of 3 replicates; controls 2 of 9).
With D25V S92M F98A the result was 2.5 µM (3 of 3 replicates; controls 2 of 9).
With Y29R G94Q F98H the result was 9.1 µM (3 of 3 replicates; controls 1 of 9).
With G49I Q96F F98I the result was nd (0 of 3 replicates; controls 2 of 9).
With A32M S55R F98V the result was 24 µM (1 of 3 replicates; controls 5 of 9).
With G49K D91H F98G the result was 3.2 µM (3 of 3 replicates; controls 7 of 9).
With E23G D25E F98A the result was 340 nM (3 of 3 replicates; controls 1 of 9).
With E23G L27K F98P the result was nd (0 of 3 replicates; controls 1 of 9).
With N52G P54Y F98L the result was 16 µM (3 of 3 replicates; controls 2 of 9).
With E23I N52S F98C the result was 300 nM (3 of 3 replicates; controls 4 of 9).
With G49C V97K F98P the result was 1.6 µM (3 of 3 replicates; controls 1 of 9).
With S88V R90N F98S the result was nd (0 of 3 replicates; controls 1 of 9).
With E23L N51D F98S the result was nd (0 of 3 replicates; controls 1 of 9).

Parent in this assay: reference entry 200 nM, copy in this library 180 nM.
Nonspecific signal, from three strains lacking the peptide, appeared in 28% of pairings of library AAYL52, centred on 8.2 µM (5% of these signals below 800 nM); values are not corrected for it. Also given: how often the same scFv was detected with the empty control strains.